From patent US20040087629A1, “Tartrate salts of thiazolidinedione derivative” (priority 2003, published 2004) come the findings set out here.

The conditions of this data set: 40° C./75% Relative Humidity (RH), open exposure, 1 month; product of Example 4.

With `CN(CCOc1ccc(CC2SC(=O)NC2=O)cc1)c1ccccn1.O=C(O)C(O)C(O)C(=O)O` [L(+) Tartrate, 5-[4-[2-(N-methyl-N-(2-pyridyl)amino)ethoxy]benzyl]thiazolidine-2,4-dione L-(+)-tartrate], the “Degradation (solid state stability)” value is given as “No significant degradation observed”.
